Test results: patent publication US20220387345A1, “ANTI-CANCER COMPOUNDS ACTING AS NON-PGP SUBSTRATE” (ASCENTAWITS PHARMACEUTICALS, LTD., priority 2019, published 2022)

By UniProt entry, the sequences of proteins in these tests, tags left out.
UniProt P08183, whole entry: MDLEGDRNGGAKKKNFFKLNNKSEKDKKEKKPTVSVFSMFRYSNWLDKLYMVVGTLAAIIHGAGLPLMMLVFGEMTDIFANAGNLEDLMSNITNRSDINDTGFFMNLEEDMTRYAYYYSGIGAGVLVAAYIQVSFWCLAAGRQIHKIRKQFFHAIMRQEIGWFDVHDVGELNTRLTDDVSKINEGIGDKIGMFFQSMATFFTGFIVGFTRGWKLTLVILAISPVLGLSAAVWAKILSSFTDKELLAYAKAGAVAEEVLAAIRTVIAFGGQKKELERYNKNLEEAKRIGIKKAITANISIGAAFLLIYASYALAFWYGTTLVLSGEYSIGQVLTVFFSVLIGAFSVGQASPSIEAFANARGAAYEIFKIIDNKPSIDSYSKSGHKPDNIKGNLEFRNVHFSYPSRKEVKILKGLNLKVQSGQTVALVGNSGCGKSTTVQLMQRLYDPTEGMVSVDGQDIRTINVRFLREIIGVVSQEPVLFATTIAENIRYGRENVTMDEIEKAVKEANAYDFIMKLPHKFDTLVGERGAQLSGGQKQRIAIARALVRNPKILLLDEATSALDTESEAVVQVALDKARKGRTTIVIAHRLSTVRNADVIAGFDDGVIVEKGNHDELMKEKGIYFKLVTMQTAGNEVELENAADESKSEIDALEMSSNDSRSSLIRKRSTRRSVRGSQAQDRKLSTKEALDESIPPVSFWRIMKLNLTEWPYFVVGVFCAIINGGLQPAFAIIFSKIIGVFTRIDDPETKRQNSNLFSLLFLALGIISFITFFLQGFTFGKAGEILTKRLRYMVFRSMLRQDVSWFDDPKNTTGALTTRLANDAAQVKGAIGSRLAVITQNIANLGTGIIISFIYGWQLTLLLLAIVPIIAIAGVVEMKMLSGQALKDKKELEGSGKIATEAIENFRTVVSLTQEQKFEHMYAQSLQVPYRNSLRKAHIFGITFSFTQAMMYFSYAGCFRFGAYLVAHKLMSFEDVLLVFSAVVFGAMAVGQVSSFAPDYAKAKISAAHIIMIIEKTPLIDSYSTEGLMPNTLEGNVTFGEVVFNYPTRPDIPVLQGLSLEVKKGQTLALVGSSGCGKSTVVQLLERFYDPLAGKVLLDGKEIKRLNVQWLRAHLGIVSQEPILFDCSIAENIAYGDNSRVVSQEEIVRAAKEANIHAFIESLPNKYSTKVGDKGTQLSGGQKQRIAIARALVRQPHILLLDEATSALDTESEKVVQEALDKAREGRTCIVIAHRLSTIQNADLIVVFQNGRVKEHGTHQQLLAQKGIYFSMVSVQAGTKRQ

Molecular target: P-glycoprotein (P-GP) (Homo sapiens, UniProt P08183)
Assay: Evaluation as P-Gp substrate: penetration test in MDCKII-MDR1 cells with Verapamil as inhibitor
Settings: MDCKII-MDR1 cell monolayer, 2 h at 37° C., Papp(B-A)/Papp(A-B), in the absence of Verapamil

For `COCCc1ccc(OCC(O)CNC(C)C)cc1` (stereo not shown) [Metoptolol, reference compound], the “Efflux ratio (MDCK-MDR1) Without Verapamil” value was 0.96.
